These results are taken from US20070149404A1, “Microbicidal compositions” (BASF AKTIENGESELLSCHAFT, priority 2003, published 2007).

This data set is described as follows: Solubility in water at room temperature.

In the case of “(1RS, 5RS;1RS, 5SR)-5- (4-chlorobenzyl)-2,2-di- methyl-1-(1H-1,2,4-tri- azol-1-ylmethyl)cyclo- pentanol [Metconazole]”, the “Aq. Solubility (ppm)” value was 15 ppm.
